The values that follow are results of earlier work, collected in US9399145B2, “Nanoscale neuromodulating platform for retina neuron activation apparatus and method” (The Board of Trustees of the University of Illinois, priority 2005, dated 2016).

By UniProt entry, the sequences of proteins in these tests, tags left out. Residues count along the entry.
UniProt P24046, 22-479: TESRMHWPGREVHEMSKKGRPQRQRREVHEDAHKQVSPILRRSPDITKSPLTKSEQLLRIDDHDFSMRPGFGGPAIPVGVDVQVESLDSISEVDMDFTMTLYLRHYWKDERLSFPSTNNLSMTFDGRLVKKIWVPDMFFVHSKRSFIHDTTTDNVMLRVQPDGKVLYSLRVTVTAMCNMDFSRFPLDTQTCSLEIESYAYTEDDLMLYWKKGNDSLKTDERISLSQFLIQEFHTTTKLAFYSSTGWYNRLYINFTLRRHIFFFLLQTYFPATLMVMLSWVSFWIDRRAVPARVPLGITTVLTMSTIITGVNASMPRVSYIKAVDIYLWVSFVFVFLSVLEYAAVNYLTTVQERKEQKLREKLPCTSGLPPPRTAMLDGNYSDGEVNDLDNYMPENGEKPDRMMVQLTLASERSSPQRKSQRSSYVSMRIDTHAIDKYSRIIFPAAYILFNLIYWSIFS

This data set deals with GABAc (Homo sapiens, UniProt P24046). The following applies: Chebib et al., 1997b; cited from earlier work.

Structures are written as SMILES.

As usually defined, the IC50 is the midpoint of a concentration-inhibition curve. For the compound `CCCCP(=O)(O)CCCN` [CGP36742, 3-aminopropyl n-butyl phosphinic acid], the IC50 is 60 µM.
